Measurements taken from BigSolDB 2.1.

CCCc1nn(C)c2c(=O)[nH]c(-c3cc(S(=O)(=O)N4CCN(C)CC4)ccc3OCC)nc12.O=C(O)CC(O)(CC(=O)O)C(=O)O
solubility (mole fraction)
Conditions | 293.2 K | 298.2 K | 303.2 K | 308.2 K | 313.2 K
in ethanol | 0.000116 | 0.000119 | 0.000159 | 0.000179 | 0.000251
in water | 0.00015 | 0.00016 | 0.00027 | 0.000303 | 0.000384
